Target: hM2 (Homo sapiens, UniProt P08172)
Assay: GloSensor cAMP functional assay, HEK293 cells stably expressing hM2
Assay type: cell-based
Details: hM2 cell line

Amino acid sequences for entries named in this document (tags omitted).
UniProt P08172, whole entry: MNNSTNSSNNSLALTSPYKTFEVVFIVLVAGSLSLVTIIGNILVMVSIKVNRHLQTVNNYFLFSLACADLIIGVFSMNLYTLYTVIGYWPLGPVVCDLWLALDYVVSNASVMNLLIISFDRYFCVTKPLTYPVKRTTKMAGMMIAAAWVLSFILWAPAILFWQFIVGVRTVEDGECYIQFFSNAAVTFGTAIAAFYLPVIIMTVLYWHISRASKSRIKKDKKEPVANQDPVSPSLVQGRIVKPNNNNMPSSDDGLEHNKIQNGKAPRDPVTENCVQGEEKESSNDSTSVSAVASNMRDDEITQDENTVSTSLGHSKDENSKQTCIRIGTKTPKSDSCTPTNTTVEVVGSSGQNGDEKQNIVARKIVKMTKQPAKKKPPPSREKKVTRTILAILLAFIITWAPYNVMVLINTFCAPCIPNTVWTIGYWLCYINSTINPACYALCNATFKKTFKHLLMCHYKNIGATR

## CC(=O)OCC[N+](C)(C)C [ACh, acetylcholine]
  ACh EC20: 3 nM

— paper PMC5573954 (Hippocampus, 2017)
